For experiment [1], the target named is Metabotropic glutamate receptor 2 (Homo sapiens, UniProt Q14416). The experiment in a line: Positive modulation of human mGluR2 expressed in CHO cells co-expressing Ga16 G-protein assessed as glutamate-induced response by FLIPR assay relative to glutamate. The class given is cell-based.
For a further experiment, the target named is D(3) dopamine receptor (Homo sapiens, UniProt P35462). The experiment is described as follows: Antagonist activity at human D3 receptor expressed in CHO cells co-expressing G0 by [35S]GTPgammaS binding assay. Type of experiment: functional, cell-based. (Binding of GTPγS marks nucleotide exchange on a G protein.)

By UniProt entry, the sequences of proteins in these tests, tags left out. Where a name states a change or a piece, a line headed by the entry shows the natural chain unless it says otherwise.
UniProt Q14416: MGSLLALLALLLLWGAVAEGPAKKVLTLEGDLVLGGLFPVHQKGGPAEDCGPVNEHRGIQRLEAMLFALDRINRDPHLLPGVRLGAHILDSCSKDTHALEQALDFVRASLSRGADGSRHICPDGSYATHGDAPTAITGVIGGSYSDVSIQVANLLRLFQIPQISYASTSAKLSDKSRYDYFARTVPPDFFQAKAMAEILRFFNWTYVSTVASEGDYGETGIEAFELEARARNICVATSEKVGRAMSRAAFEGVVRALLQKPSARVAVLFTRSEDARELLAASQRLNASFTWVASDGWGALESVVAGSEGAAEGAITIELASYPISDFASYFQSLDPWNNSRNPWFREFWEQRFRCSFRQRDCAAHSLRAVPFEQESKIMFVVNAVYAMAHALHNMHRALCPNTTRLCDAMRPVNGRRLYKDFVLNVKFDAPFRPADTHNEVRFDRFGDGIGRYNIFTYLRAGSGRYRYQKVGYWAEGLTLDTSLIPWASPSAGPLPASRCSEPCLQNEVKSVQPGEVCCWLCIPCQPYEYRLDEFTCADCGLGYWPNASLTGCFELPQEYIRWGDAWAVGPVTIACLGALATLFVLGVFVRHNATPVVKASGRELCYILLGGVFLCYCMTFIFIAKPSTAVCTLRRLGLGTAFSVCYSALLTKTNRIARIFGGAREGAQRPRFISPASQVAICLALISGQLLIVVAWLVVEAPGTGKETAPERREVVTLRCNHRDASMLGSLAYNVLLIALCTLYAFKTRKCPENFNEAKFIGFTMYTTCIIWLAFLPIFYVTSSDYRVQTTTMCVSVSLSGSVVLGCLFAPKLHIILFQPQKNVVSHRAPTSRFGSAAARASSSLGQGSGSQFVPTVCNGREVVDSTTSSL
UniProt P35462, whole entry: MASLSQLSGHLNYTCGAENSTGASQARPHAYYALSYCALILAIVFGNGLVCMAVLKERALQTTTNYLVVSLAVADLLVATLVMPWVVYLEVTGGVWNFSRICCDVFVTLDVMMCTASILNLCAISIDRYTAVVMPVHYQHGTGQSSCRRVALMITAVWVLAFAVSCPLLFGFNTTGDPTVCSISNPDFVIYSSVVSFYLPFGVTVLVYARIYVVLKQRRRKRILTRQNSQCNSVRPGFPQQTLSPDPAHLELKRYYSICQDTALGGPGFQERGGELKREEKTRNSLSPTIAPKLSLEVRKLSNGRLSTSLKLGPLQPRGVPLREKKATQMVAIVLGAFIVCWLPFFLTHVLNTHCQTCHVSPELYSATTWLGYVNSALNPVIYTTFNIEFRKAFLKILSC

In general, Emax refers to the greatest response seen or fitted, relative to the assay's reference. Broadly, the Ki is the dissociation constant of the complex between target and ligand, obtained from inhibition or displacement. A low value points to higher affinity.

With `Cn1c(CN2CCC(c3ccccc3F)CC2)nc2ccccc21`, the Emax in experiment [1] is 91%. Besides, at D(3) dopamine receptor, the Ki was 100 nM.

The values are drawn from ChEMBL document CHEMBL1153221, “The identification of structurally novel, selective, orally bioavailable positive modulators of mGluR2” (Bioorg Med Chem Lett, 2010).
